Reference: US20260027244A1, “SILICON-BASED FLUORIDE ACCEPTOR GROUPS FOR RADIOPHARMACEUTICALS” (Technische Universität München, priority 2022, published 2026)

Amino acid sequences for entries named in this document (tags omitted). Residues count along the entry.
UniProt P02768, 25-609: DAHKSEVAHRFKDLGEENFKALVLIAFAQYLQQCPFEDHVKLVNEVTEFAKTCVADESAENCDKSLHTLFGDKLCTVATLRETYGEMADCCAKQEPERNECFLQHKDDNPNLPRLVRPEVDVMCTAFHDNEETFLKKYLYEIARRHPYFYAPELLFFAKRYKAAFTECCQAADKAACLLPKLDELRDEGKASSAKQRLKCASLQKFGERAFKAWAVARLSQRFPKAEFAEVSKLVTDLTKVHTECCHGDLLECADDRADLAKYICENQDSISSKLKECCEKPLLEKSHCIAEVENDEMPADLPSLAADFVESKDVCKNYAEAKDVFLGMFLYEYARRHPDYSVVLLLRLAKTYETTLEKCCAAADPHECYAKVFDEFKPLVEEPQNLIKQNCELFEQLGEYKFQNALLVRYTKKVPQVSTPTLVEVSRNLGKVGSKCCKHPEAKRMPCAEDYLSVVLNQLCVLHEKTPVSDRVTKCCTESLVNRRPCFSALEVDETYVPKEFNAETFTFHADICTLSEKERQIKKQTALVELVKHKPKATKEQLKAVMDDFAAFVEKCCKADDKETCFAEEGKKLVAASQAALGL

Experiments:
[1] = biological target: T1, human serum albumin (HSA) (Homo sapiens, UniProt P02768); details: HSA binding values obtained from literature; cited from earlier work
[2] = biological target: T1, human serum albumin (HSA); test: HSA binding of reference substances from literature (HPAC calibration); details: logarithmic value of HSA binding values

In the case of `NC(=O)N1c2ccccc2C=Cc2ccccc21` [Carabamazepine], the “lit. HSA [%]” value [1] is given as 75.00% and the “Log K HSA” value [2] is given as 0.46.
